PubChem BioAssay AID1745844 (Carcinogenic Potency Database (CPDB), 2022)
The source made the active and inactive calls. The rule behind the calls is not given here.

System: rodent lifetime carcinogenesis bioassay, tumor incidence TD50
Experiment: carcinogenic potency in animals, long-term in vivo studies, CPDB compilation (AID 1745844)
Conditions: dosed 104 weeks, study length 104 weeks

C[As](=O)(O)O
inactive: TD50 (mouse, strain B6C3F1, females, in feed, site: liver, lesion: hepatocellular adenoma) 751 mg/kg/day | carcinogen call (mouse, strain B6C3F1, females, in feed, site: liver, lesion: hepatocellular carcinoma) negative | TD50 (mouse, strain B6C3F1, females, in feed, site: lung, lesion: alveolar/bronchiolar adenoma) 2190 mg/kg/day | carcinogen call (mouse, strain B6C3F1, females, in feed, site: lung, lesion: alveolar/bronchiolar carcinoma) negative | carcinogen call (mouse, strain B6C3F1, males, in feed, site: liver, lesion: hepatocellular adenoma) negative | carcinogen call (mouse, strain B6C3F1, males, in feed, site: liver, lesion: hepatocellular carcinoma) negative | TD50 (mouse, strain B6C3F1, males, in feed, site: lung, lesion: alveolar/bronchiolar adenoma) 1360 mg/kg/day | carcinogen call (mouse, strain B6C3F1, males, in feed, site: lung, lesion: alveolar/bronchiolar carcinoma) negative | TD50 (rat, strain F344/DuCrj, males, in drinking water, site: any site (literature study), lesion: several types, types named in the paper) 5.91 mg/kg/day | TD50 (rat, strain F344/DuCrj, males, in drinking water, site: liver, lesion: hepatocellular adenoma) 72.4 mg/kg/day | TD50 (rat, strain F344/DuCrj, males, in drinking water, site: testis, lesion: interstitial-cell tumor) 3.36 mg/kg/day | carcinogen call (rat, strain F344/DuCrj, males, in drinking water, site: urinary bladder, lesion: transitional-cell carcinoma) negative | carcinogen call (rat, strain Fischer 344, females, in feed, site: liver, lesion: one or several types, types not named) negative | TD50 (rat, strain Fischer 344, males, in feed, site: all sites, lesion: mononuclear-cell leukemia) 139 mg/kg/day | carcinogen call (rat, strain Fischer 344, males, in feed, site: liver, lesion: hepatocellular carcinoma) negative
